Experimental findings from ChEMBL document CHEMBL4808225, “Discovery and Characterization of Selective and Ligand-Efficient DYRK Inhibitors” (J Med Chem, 2021) are described below.

The target of the assay is Dual specificity tyrosine-phosphorylation-regulated kinase 1A (Homo sapiens, UniProt Q13627). Particulars: time min <=5.
In the case of `c1cnn2ncc(-c3ccnc(N4CCC45COC5)n3)c2c1`, the Ka is 3.9 10^6/M/s.

On to `CNc1nccc(-c2cnn3ncccc23)n1`, for which the Ka was 6 10^6/M/s.

On to `CN(C)c1ncc(Cl)c(-c2cnn3ncccc23)n1`, for which the Ka was 1.6 10^6/M/s.

With `CN(C)c1ncc(F)c(-c2cnn3ncccc23)n1`, the Ka is 4.7 10^6/M/s.

On to `CN(c1nccc(-c2cnn3ncccc23)n1)C1CC1`, for which the Ka is 6.3 10^6/M/s.

In the case of `Nc1nccc(-c2cnn3ncccc23)n1`, the Ka is 7.3 10^6/M/s.

In the case of `CN(C)c1ncnc(-c2cnn3ncccc23)n1`, the Ka is 2.9 10^6/M/s.
